Results as given in article PMC5929447, “S55746 is a novel orally active BCL-2 selective and potent inhibitor that impairs hematological tumor growth” (Oncotarget, 2018).

By UniProt entry, the sequences of proteins in these tests, tags left out.
UniProt P10415, whole entry: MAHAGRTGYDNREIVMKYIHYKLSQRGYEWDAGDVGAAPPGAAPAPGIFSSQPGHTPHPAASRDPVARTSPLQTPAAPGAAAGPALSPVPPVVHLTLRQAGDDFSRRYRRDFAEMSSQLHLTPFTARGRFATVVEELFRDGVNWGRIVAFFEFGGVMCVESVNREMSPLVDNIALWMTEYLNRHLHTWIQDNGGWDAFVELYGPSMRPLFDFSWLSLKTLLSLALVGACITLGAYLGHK

Columns and labels:
[1] = molecular target: T1, BCL-2 (Homo sapiens, UniProt P10415); assay: Isothermal titration calorimetry (ITC), BCL-2; format: binding; conditions: 25 °C; ND = not determinable (too potent); read-out: ITC_BCL-2_KD
Procedure: The protein was dialyzed prior to use in 2 L of 25 mM HEPES, 150 mM NaCl, 5% glycerol (v/v), 0.5% MTG (v/v) at pH 7.4 for 3 hours at room temperature. The protein was dialyzed using a 3.5 K MWCO Slide-A-Lyzer™ cassette. The protein solution was recovered, spin-filtered through a […] frit. The filtered protein was quantified by UV absorbance at 280 nm using an extinction coefficient of 36440 M^-1cm^-1. 500 ml of dialysis buffer was retained (remainder used to rinse out SCHOT bottle) and degassed for a minimum of 30 mins under vacuum with constant stirring. Typically, 50 μM protein was titrated from the syringe into the cell containing 5 μM compound. The solutions were carefully matched to ensure same solvent and buffer conditions were present in both syringe and cell (this is to minimize heat of dilution effects). The final solution was the dialysis buffer plus 1% DMSO and 0.05% P20. The experiment was performed over 13 injections with stirring at 1000 rpm, gain setting low and at 25° C. Pure water was used in the reference cell. The first injection was 0.5 μl with a duration of 1 second with a gap of 150 seconds until the further 12 injections of 3.05 μl with a duration 6.1 seconds and a 240 second interval between injections. Data was analyzed using the vendor supplied software, PEAQ-ITC Analysis Software. The data model used was the single site model. […]

[2] = molecular target: T1, BCL-2; assay: Surface plasmon resonance affinity in solution (SPR AIS), BCL-2; format: binding; conditions: read-out: SPR AIS_BCL-2_KD

Kd [1]: 2.47 nM
Kd [2]: 3.9 nM
Compound: O=C(c1cc(-c2cc3c(cc2C(=O)N2Cc4ccccc4C[C@H]2CN2CCOCC2)OCO3)n2c1CCCC2)N(c1ccccc1)c1ccc(O)cc1 [S55746]
